Values of other authors, collected in patent US20170173134A1 (priority 2011, published 2017).

Conditions: in vivo; cited from earlier work

Substance: Bacillus Calmette-Guérin [BCG]
- Cystitis, (%) patients affected: >50%
- Epididymitis, (%) patients affected: <2%
- Fever (high grade), (%) patients affected: 3%
- Fever (low grade), (%) patients affected: 25%
- Generalized infection, (%) patients affected: Rarely
- Prostatitis, (%) patients affected: <5%
- Septicemia, (%) patients affected: <0.5- %
- patients affected by systemic complications such as fever: around 15%
- patients who completed the entire period of intended treatment (SWOG 8507): 16%
- withdrawal from treatment because of systemic complications: around 5%
